Results published in US4801534A, “Water soluble zanthylium derivative substrates” (Coulter Electronics, Inc., priority 1987, dated 1989).

Conditions: 37° C., even with the addition of 15% ethanol

(Cbz-L-Pro-Arg)2 -Rhodamine 110 [(Cbz-Pro-Arg)2 -Rhodamine 110, reference compound]
solubility: up to 120 micromolar
